Measured values as given in PubChem BioAssay AID1777 (Sanford-Burnham Center for Chemical Genomics, 2009).
This is one part of the list. Results with a measured potency or affinity are listed apart. The source made the active and inactive calls. Cut-off read from the data, not from the text of the source: active = activation above about 50% (passing the limit was not always enough); inactive = the rest.

Amino acid sequences for entries named in this document (tags omitted). A change or cut given only in a name is not applied to a line headed by its entry.
UniProt P41145: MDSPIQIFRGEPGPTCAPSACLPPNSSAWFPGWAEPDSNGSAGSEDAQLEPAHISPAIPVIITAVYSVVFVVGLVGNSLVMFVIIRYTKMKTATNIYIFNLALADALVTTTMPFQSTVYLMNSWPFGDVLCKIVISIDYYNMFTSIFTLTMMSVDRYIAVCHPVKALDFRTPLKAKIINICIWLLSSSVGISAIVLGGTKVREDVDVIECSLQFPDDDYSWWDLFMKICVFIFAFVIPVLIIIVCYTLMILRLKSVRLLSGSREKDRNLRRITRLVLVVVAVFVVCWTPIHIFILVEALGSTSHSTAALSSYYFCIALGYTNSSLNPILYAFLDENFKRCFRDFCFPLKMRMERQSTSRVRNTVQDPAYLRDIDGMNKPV

target: Kappa-type opioid receptor (Homo sapiens) (UniProt P41145); test: kappa opioid receptor activators – cell-based, luminescence, uHTS, primary screen (AID 1777); settings: KOR beta-arrestin recruitment, at 10 µM, active compounds read high

Row | Compound | activation
1 | COc1ccc(N2CCn3c2nc2c3c(=O)n(CCN3CCOCC3)c(=O)n2C)cc1 | inactive: -2.3%
2 | CCC(C)[C@H](NC(=O)N1CCn2c1nc1ccccc12)C(=O)NCc1ccc(OC)cc1 (stereo partly drawn) | inactive: -2.1%
3 | Cn1c(=O)[nH]c(=O)c2c1ncn2CCN1CCOCC1 | inactive: -6.3%
4 | CCOC(=O)C1=C(Cn2cnc3ccccc32)NC(=O)NC1c1ccc(OC)cc1 (stereo not drawn) | inactive: -0.3%
5 | CC(=O)Nc1nc2ccccc2n1CCN1CCOCC1 | inactive: -1.3%
6 | Cc1nc2ccccc2n1C1CC(=O)N(N(C)C)C1=O (stereo not drawn) | inactive: -1%
7 | Cc1cccc(C)c1NC(=O)Cn1cnc2c(=O)n(C)c(=O)n(C)c21 | inactive: 7.3%
8 | CC(=O)OCCNC(=O)Cn1cnc2c1c(=O)n(C)c(=O)n2C | inactive: -2.4%
9 | CCCCNC(=O)Cn1c(=O)n(C)c2ccccc21 | inactive: 0.7%
10 | O=C(Cn1cnc2ccccc21)N/N=C/c1cccc([N+](=O)[O-])c1 | inactive: 0.7%
11 | NC(=O)Nc1ccc([As](=O)(O)O)cc1 | inactive: 2.1%
12 | CC1Cc2ccccc2N1C(=O)CSc1nc2ccccc2n1CC(=O)N1CCOCC1 (stereo not drawn) | inactive: -0.8%
13 | CC(C)NC(=S)N1CCn2c(nc3ccccc32)C1 | inactive: 2.6%
14 | Nc1nc2ccccc2n1CCN1CCCC1 | inactive: -1.5%
15 | O=C(CCCCCNC(=O)N1CCn2c1nc1ccccc12)NCc1ccc(Cl)cc1 | inactive: -6.1%
16 | Cc1nn2c3ccccc3n(CCN3CCCCC3)c2nc1=O | inactive: 5.6%
17 | FC(F)(F)c1ccc2c(c1)ncn2C1CCN(Cc2nnnn2C2CCCCC2)CC1 | inactive: -3.4%
18 | CCOP1(=S)c2c(C)nn(CCC#N)c2N=C(c2ccc(F)cc2)N1C (stereo not drawn) | inactive: -4.4%
19 | Cn1c(=O)c2c(nc(CN3CCN(c4ccccc4F)CC3)n2CCN2CCOCC2)n(C)c1=O | inactive: -3.3%
20 | Fc1ccc2c(c1)nnn2C1CCN(Cc2c(Cl)cccc2Cl)CC1 | inactive: -5.5%
21 | CC(C)[C@H](NC(=O)N1CCn2c1nc1ccccc12)C(=O)NCc1ccco1 | inactive: -4.8%
22 | COc1ccc(CNC(=O)[C@H](CCSC)NC(=O)N2CCn3c2nc2ccccc23)cc1 | inactive: -3.4%
23 | CCOC(=O)c1ccc(N2C(=O)CC(N3CCC(Nc4ccc(F)cc4)CC3)C2=O)cc1 (stereo not drawn) | inactive: -6.3%
24 | O=C(Cn1cnc2ccccc21)N/N=C/c1ccccc1[N+](=O)[O-] | inactive: 5.8%

Row | Compound | activation
25 | O=C(CSc1nc2ccccc2n1CC(=O)N1CCCC1)Nc1nccs1 | inactive: -3.3%
26 | O=C(Nc1ccccc1)N1CCn2c1nc1ccccc12 | inactive: -4%
27 | CCc1cccc(C)c1NC(=O)Cn1c(NCCO)nc2ccccc21 | inactive: -0.6%
28 | Cc1ccc2c(c1)C1CN(C)CCC1N2C(=S)NC(=O)c1ccc(Br)cc1 (stereo not drawn) | inactive: -7.1%
29 | O=[N+]([O-])c1ccc2c(c1)nnn2O | inactive: 4.2%
30 | O=P(Nc1nccs1)(c1ccccc1)c1nc2ccccc2s1 (stereo not drawn) | inactive: -0.5%
31 | Cn1c(=O)c2c(ncn2CC(=O)N2CCN(S(=O)(=O)c3ccc(Cl)cc3)CC2)n(C)c1=O | inactive: -0.1%
32 | CCN(CC)CCn1c(C)nc2ccccc21 | inactive: 6%
33 | Cc1ccccc1NC(=O)Cn1c(NCC(C)O)nc2ccccc21 (stereo not drawn) | inactive: 1.7%
34 | O=P(Nc1nccs1)(Oc1ccccc1)Oc1ccccc1 | inactive: 0.4%
35 | CCc1nc2ccccc2n1CC(=O)Nc1cc(C)on1 | inactive: 0.8%
36 | CC(C)c1ccc(NC(=O)C2CC(=O)Nc3nc4ccccc4n32)cc1 (stereo not drawn) | inactive: 5.3%
37 | N#Cc1ccc(NC(=O)Cn2c3[n+](c4ccc(C(F)(F)F)cc42)CCCCC3)cc1 | inactive: -0.7%
38 | O=C(Nc1nc2ccccc2n1CCN1CCOCC1)c1ccc(Cn2cc([N+](=O)[O-])cn2)o1 | inactive: 6.6%
39 | CCC(C)[C@H](NC(=O)N1CCn2c1nc1ccccc12)C(=O)NCCc1ccc(OC)c(OC)c1 (stereo partly drawn) | inactive: 0.6%
40 | Cn1c(=O)n(CC(=O)Nc2ccc(F)cc2)c2ccccc21 | inactive: -3.4%
41 | CC(C)N(C(=O)Cn1c(SCC(=O)N2CCN(c3ccccc3)CC2)nc2ccccc21)C(C)C | inactive: 0.3%
42 | CCOC(=O)c1cccc(NC(=O)Cn2c(CC(=O)N3CCCC3)nc3ccccc32)c1 | inactive: -4.3%
43 | C/C(=N\NC(=O)Cn1c(-c2ccccn2)nc2ccccc21)c1cccc(O)c1 | inactive: -7.2%
44 | CCOP1(=S)c2c(C)nn(CCC#N)c2N=C(c2ccccc2F)N1C (stereo not drawn) | inactive: 0.7%
45 | CCN1CCC(Nc2ccnc3cc(Cl)ccc23)CC1 | inactive: 0.3%
46 | CS(=O)(=O)c1cc([N+](=O)[O-])c2no[n+]([O-])c2c1 | inactive: 1.7%
47 | CCC(=O)NC(/C=C/c1ccccc1)c1cc([N+](=O)[O-])c2cccnc2c1O (stereo not drawn) | inactive: -6%
48 | Cn1c(=O)c2c(ncn2CC(=O)Nc2ccc3c(c2)OCO3)n(C)c1=O | inactive: 3.4%

Row | Compound | activation
49 | Cc1ccc(/C=N\NC(=O)Cn2c(C)nc3ccccc32)o1 | inactive: -0.7%
50 | O=C(Cn1cnc2ccccc21)N1CCc2ccccc21 | inactive: -10.4%
51 | O=C1NCN(c2ccccc2)C12CCN(c1nnnn1-c1ccccc1)CC2 | inactive: 0.2%
52 | CN(C)C(=O)Cn1c(SCC(=O)N2CCCc3ccccc32)nc2ccccc21 | inactive: 3.8%
53 | CCN(Cc1ccccc1)C(=O)Cn1cnc2c1c(=O)n(C)c(=O)n2C | inactive: -1.7%
54 | CCN(CC)CCn1c(=N)n(CC(O)COc2ccccc2)c2ccccc21 (stereo not drawn) | inactive: 1.7%
55 | C[C@H](NC(=O)N1CCn2c1nc1ccccc12)C(=O)NCc1ccc2c(c1)OCO2 | inactive: 2%
56 | COC(CNC(=O)CC1C(=O)N(Cc2ccccc2)C(C)c2nc3ccccc3n21)OC (stereo not drawn) | inactive: 4.6%
57 | Fc1ccc2c(c1)nnn2C1CCN(Cc2nnnn2C2CCCCC2)CC1 | inactive: 26.8%
58 | N=c1n(CCN2CCOCC2)c2ccccc2n1CC(O)COc1ccccc1 (stereo not drawn) | inactive: 4.8%
59 | NC(=O)CC(NC(=O)Cc1cccc2ccccc12)c1ccc(NC2CCN(Cc3ccccc3)CC2)c([N+](=O)[O-])c1 (stereo not drawn) | inactive: 1.9%
60 | NNC(=O)Cn1c(COc2ccc(Cl)cc2)nc2ccccc21 | inactive: 1.9%
61 | COc1cccc(C(=O)CSc2nc3ccccc3n2CC(=O)N(C(C)C)C(C)C)c1 | inactive: -4.3%
62 | CC(C)Sc1nc2ccccc2n1CC(=O)NCc1ccc2c(c1)OCO2 | inactive: -1.6%
63 | Cn1c(=O)n(Cc2ccc(F)cc2)c(=O)c2c1nc1n2CCN1Cc1ccco1 | inactive: -0.4%
64 | CCOC(=O)CNC(=S)N1CCn2c(nc3ccccc32)C1 | inactive: -2%
65 | O=C(Cn1c(-c2ccccn2)nc2ccccc21)N/N=C/c1cccnc1 | inactive: 0.3%
66 | CCOC(=O)C1CCN(C(=O)CC2C(=O)N(Cc3ccccc3)C(C)c3nc4ccccc4n32)CC1 (stereo not drawn) | inactive: 1.9%
67 | Cc1nc2ccccc2n1CC(=O)NCc1ccccc1 | inactive: -1.6%
68 | Cn1c(=O)c2c(ncn2CC(=O)N/N=C/C=C/c2ccco2)n(C)c1=O | inactive: 0.1%
69 | Cn1c(=O)c2c(ncn2CC(=O)N/N=C/c2cn[nH]c2-c2ccc(F)cc2)n(C)c1=O | inactive: -1.4%
70 | O=C(C1CCN(S(=O)(=O)c2cnc[nH]2)CC1)N1CCn2c1nc1ccccc12 | inactive: -0.8%
71 | O=C(Cn1cnc2ccccc21)N/N=C/c1ccc([N+](=O)[O-])cc1 | inactive: -5.3%
72 | O=C(O)COc1ccc([As](=O)(O)O)cc1[N+](=O)[O-] | inactive: -4.5%

Row | Compound | activation
73 | Nc1ccccc1[As](=O)(O)c1ccccc1 | inactive: 2.1%
74 | Nc1nonc1-c1nc2ccccc2n1CC(=O)N/N=C/c1ccc(-c2cccc(C(=O)O)c2)o1 | inactive: -2.2%
75 | Cc1ccc2c(c1)C1CN(C)CCC1N2C(=O)c1cn(-c2ccccc2)nc1-c1ccccc1 (stereo not drawn) | inactive: -4.1%
76 | CCOC(=O)c1ccccc1NC(=O)Cn1cnc2c1c(=O)n(C)c(=O)n2C | inactive: -4.4%
77 | NC(=O)Cn1c(-c2nonc2N)nc2ccccc21 | inactive: -2.5%
78 | COCCN1CCn2c(nc3cc(NC(=O)NC4CCCCC4)ccc32)C1 | inactive: 2.9%
79 | CC(c1ccccc1)N1CCn2c(nc3cc(NC(=O)c4cccs4)ccc32)C1 (stereo not drawn) | inactive: 0%
80 | O=C1CC(N2CCC(n3c(=O)[nH]c4ccccc43)CC2)C(=O)N1c1ccc(F)cc1 (stereo not drawn) | inactive: -3.4%
81 | CC(C)N(C(=O)Cn1c(SCC(=O)NCc2ccc3c(c2)OCO3)nc2ccccc21)C(C)C | inactive: -4.1%
82 | CCc1ccccc1NC(=O)CSc1nc2ccccc2n1CC(=O)N(C)C | inactive: -1.3%
83 | N=c1n(CCN2CCOCC2)c2ccccc2n1Cc1ccccc1Br | inactive: 6%
84 | O=S(=O)(Nc1ccc2c(c1)nc1n2CCN(Cc2ccccc2)C1)c1ccc(Cl)cc1 | inactive: 46.6%
85 | O=C(Cn1cnc2ccccc21)N/N=C/c1cccs1 | inactive: -0.4%
86 | CN(C)CCn1cnc2c1c(=O)[nH]c(=O)n2Cc1ccccc1 | inactive: -3%
87 | Cc1ccc2c(c1)C1CN(C)CCC1N2C(=O)c1ccc(Br)o1 (stereo not drawn) | inactive: 1.2%
88 | COC(=O)CSc1nc2ccccc2n1CC(=O)N(C(C)C)C(C)C | inactive: -2.5%
89 | Cc1ccc2c(c1)C1CN(C)CCC1N2C(=O)/C(C#N)=C/c1ccc2c(c1)OCO2 (stereo not drawn) | inactive: 1.7%
90 | O=P1(Nc2ncccn2)COc2ccccc2OC1 | inactive: 4.1%
91 | Cn1c(=O)[nH]c(=O)c2c1nc(N1CCOCC1)n2CCN1CCOCC1 | inactive: -7.8%
92 | CCN(CC)C(=O)N1CCn2c(nc3ccccc32)C1 | inactive: -1.9%
93 | COc1ccccc1N1CCN(C(=O)Cn2cnc3c2c(=O)n(C)c(=O)n3C)CC1 | inactive: -1.2%
